Data: patent US20160169850A1, “SENSOR MOLECULE” (University of Malta, priority 2014, published 2016)
Several values for one entry are separate records, joined by “and”; a condition that tells them apart may be missing. Identical values can stand only once. Like-named read-outs stand apart in the source and are kept apart here.

What was measured:
[1] = not given; remark: listed apart in the source
[2] = 1:1 methanol:water, excess Fe(III), emission at 525 nm
[3] = 1:1 methanol:water, excitation 399 nm
[4] = 1:1 MeOH/H2O with 25 mM methanesulfonic acid
[5] = MeOH with 25 mM methanesulfonic acid

Substance: N-ferrocenyl-4-methylpiperazine-1,8-naphthalimide [Compound 5]
- isosbestic point wavelength (1:1 (v/v) methanol:water, pH 2-10): 399 nm
- Molar extinction coefficient (ε) (1:1 MeOH/H2O): 12000 L/mol/cm
- λmax (1:1 MeOH/H2O): 390 nm
- Molar extinction coefficient (ε) [4]: 12900 L/mol/cm
- λmax [4]: 386 nm
- Molar extinction coefficient (ε) [5]: 13100 L/mol/cm
- λmax [5]: 378 nm
- Absorbance (maximum wavelength) (MeOH:H2O (1:1)): 399 nm
- Molar Extinction Coefficient (MeOH:H2O (1:1)): 12000 L/cm/mol
- Molar extinction coefficient (ε) (MeOH, 1 × 10^−5 M compound): 12700 L/mol/cm
- λmax (MeOH, 1 × 10^−5 M compound): 399 nm
- Output emission (ΦF), quantum yield ([1]; Condition A: no inputs, 1:1 methanol:water, 3×10^−6 M): 0.0003
- Output emission (ΦF), quantum yield ([1]; Condition B: 0.2 mM H^+ only, 1:1 methanol:water): 0.0050
- Output emission (ΦF), quantum yield ([1]; Condition C: 10 μM Fe(III) only, 1:1 methanol:water): 0.0015
- Output emission (ΦF), quantum yield, 'on' state ([1]; Condition D: 0.2 mM H^+ and 10 μM Fe(III), 1:1 methanol:water): 0.096 and 0.10
- Quantum Yield (ΦF) ([1]; MeOH:H2O (1:1)): 0.096
- pKa of protonated tertiary amine (proton receptor) [2]: 6.6
- fluorescence emission maximum (λmax) [3]: 525 nm
